Assay results published in patent US11091496B2, “Opioid ketal compounds and uses thereof” (priority 2013, dated 2021).

Type: physicochemical
Conditions: 0.1 N HCl 37° C.; for % Hydromorphone, % Ketal A-D in hydrolysis mixture: hydromorphone 2,4-pentanediol ketal isomers + unreacted hydromorphone, 1 mg/ml; for % increase in hydromorphone: hydromorphone released from hydrolysis of hydromorphone 2,4-pentanediol ketals

**Q.** What does the source list for `CN1CC[C@]23c4c5ccc(O)c4O[C@H]2C(=O)CC[C@H]3[C@H]1C5` [Hydromorphone, hydromorphone, reference compound]?
**A.** % Hydromorphone, % Ketal A-D in hydrolysis mixture (0 h): 63.3%; % Hydromorphone, % Ketal A-D in hydrolysis mixture (0.58 h): 72.5%; % Hydromorphone, % Ketal A-D in hydrolysis mixture (1.25 h): 75.4%; % Hydromorphone, % Ketal A-D in hydrolysis mixture (2 h): 78.8%; % Hydromorphone, % Ketal A-D in hydrolysis mixture (3.15 h): 83%; % Hydromorphone, % Ketal A-D in hydrolysis mixture (4 h): 85%; % increase in hydromorphone (0 h): 0%; % increase in hydromorphone (0.58 h): 9.2%; % increase in hydromorphone (1.25 h): 12.1%; % increase in hydromorphone (2 h): 15.5%; % increase in hydromorphone (3.15 h): 19.7%; % increase in hydromorphone (4 h): 21.7%

Like-named read-outs stand apart in the source and are kept apart here.
